According to PubChem BioAssay AID651572 (The Scripps Research Institute Molecular Screening Center, 2012):
The list shows a part of the results, in another mix than the full data. Calls of active or inactive are those of the source.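 Rule for the calls: active = inhibition above a per-plate limit, mean inhibition of low control wells plus 3 SD (cut at about 25% in these data); inactive = the rest.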

Chains of the proteins cited; added tags and fusions are not shown. Residues count along the entry.
UniProt Q62848, 1-136 limits assumed: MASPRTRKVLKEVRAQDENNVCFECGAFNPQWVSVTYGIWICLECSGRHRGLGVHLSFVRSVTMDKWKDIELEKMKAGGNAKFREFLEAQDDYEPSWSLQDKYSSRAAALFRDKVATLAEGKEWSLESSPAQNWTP

molecular target: ADP-ribosylation factor GTPase-activating protein 1 (Rattus norvegicus) (UniProt Q62848); assay: blockers of ARFGAP1-stimulated ARF1 GTP hydrolysis – biochemical, fluorescence polarization, GDP tracer, primary screen (AID 651572); settings: GDP FP detection, at 16.5 µM, stronger effect = higher value;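 note: 0% = DMSO wells with enzyme and 100% = wells lacking Arfgap1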
How it was run: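 System: truncated rat Arfgap1 GAP domain / Medium: HEPES-based buffer, pH 7.5 / Also added: N-terminally truncated human ARF1-GTP substrate / Incubation: enzyme reaction 120 min at 25 °C after 20 min preincubation / Measured by: FP of antibody-bound GDP Alexa 633 tracer, ex 620/em 688 nm / Replicates: singlicate, each compound tested once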

Compound | inhibition
O=[N+]([O-])c1cc([N+](=O)[O-])c(O)c([N+](=O)[O-])c1.c1ccc(Oc2ccncc2)cc1 | inactive: 1.95%
CCOC(=O)c1ccc(NP(C)(=O)Oc2ccc(OC)cc2)cc1 (stereo unspecified) | inactive: 4.16%
CCOP(C)(=S)SCC(=O)NC(C)C(=O)O (stereo unspecified) | inactive: 3.45%
CP(=O)(Nc1ccccn1)Oc1ccc(Cl)cc1 (stereo unspecified) | inactive: 13.2%
CP(=O)(Nc1ccc(SC(F)(F)F)cc1)Oc1ccc(Cl)cc1 (stereo unspecified) | inactive: -7.16%
Cc1cccc(C)c1OP(C)(=O)Nc1ccc(SC(F)(F)F)cc1 (stereo unspecified) | inactive: 5.39%
CP(=O)(Oc1ccccc1)OC(c1ccccc1)C(F)(F)F (stereo unspecified) | inactive: 12.8%
CCc1ccc(OP(C)(=O)N2CCN(c3ccc([N+](=O)[O-])cc3)CC2)cc1 (stereo unspecified) | inactive: 0.29%
CP(=O)(NC(=O)Nc1ccccc1)Oc1ccccc1 (stereo unspecified) | inactive: 5.71%
Cc1cc(C)cc(OP(C)(=O)Nc2ccc(SC(F)(F)F)cc2)c1 (stereo unspecified) | inactive: 9.51%
CP(=S)(Nn1cnnc1)Oc1ccccc1 (stereo unspecified) | inactive: -7.18%
CP(=O)(Nc1ccccc1Br)Oc1ccccc1 (stereo unspecified) | inactive: -4.19%
COc1ccccc1OP(C)(=O)Nc1ccccc1 (stereo unspecified) | inactive: 1.73%
COc1ccccc1OP(C)(=O)Nc1ccc(C)cc1 (stereo unspecified) | inactive: 9.44%
Cc1ccc(NP(C)(=O)Oc2ccccc2)c(C)c1 (stereo unspecified) | inactive: -2.65%
CCOC(=O)c1ccc(NP(C)(=O)Oc2ccccc2)cc1 (stereo unspecified) | inactive: 9.31%
Cc1cc(C)cc(OP(C)(N)=O)c1 (stereo unspecified) | inactive: -1.5%
COc1ccccc1OP(C)(=O)Nc1cc(Cl)ccc1C (stereo unspecified) | inactive: -0.22%
COc1ccc(OP(C)(=O)Nc2cccc(F)c2)cc1 (stereo unspecified) | inactive: 13%

Compound | inhibition
O=[N+]([O-])c1cc([N+](=O)[O-])c(Nc2cccnc2)c([N+](=O)[O-])c1 | inactive: 4.17%
O=[N+]([O-])c1ccc2c(c1)C=Nc1ccccc1O2 | inactive: 1.62%
CC(C)(C)c1ccc(OP(C)(=O)Nc2ccc(SC(F)(F)F)cc2)cc1 (stereo unspecified) | inactive: -3.65%
Cc1cccc(C)c1OP(C)(N)=O (stereo unspecified) | inactive: -5.83%
COc1ccccc1-c1ccccn1.O=[N+]([O-])c1cc([N+](=O)[O-])c(O)c([N+](=O)[O-])c1 | inactive: -1.4%
CCN(CC)CCCOC(=O)C(O)(c1ccccc1)c1ccccc1 | inactive: 10.1%
Cc1ccc(C)c(NP(C)(=O)Oc2ccccc2)c1 (stereo unspecified) | inactive: 2.48%
CP(=O)(Nc1cccc(Br)c1)Oc1ccccc1 (stereo unspecified) | inactive: -0.24%
Cc1cc(C)cc(OP(C)(=O)Nc2ccccn2)c1 (stereo unspecified) | inactive: 2.63%
COc1ccccc1OP(C)(=O)Nc1cccc(Br)c1 (stereo unspecified) | inactive: -6.3%
CCOC(=O)c1ccc(NP(C)(=O)Oc2cc(C)cc(C)c2)cc1 (stereo unspecified) | inactive: -2.74%
Cc1cc(C)cc(OP(C)(=O)Nc2ccc(C)cc2C)c1 (stereo unspecified) | inactive: -2.71%
CC1=NCCc2c1[nH]c1ccccc21.O=[N+]([O-])c1cc([N+](=O)[O-])c(O)c([N+](=O)[O-])c1 | inactive: -2.51%
O=C(O)c1cccc(Nc2c([N+](=O)[O-])cc([N+](=O)[O-])cc2[N+](=O)[O-])c1 | inactive: 14.7%
CN1CCCCC1COC(=O)C1(O)c2ccccc2CCc2ccccc21 (stereo unspecified) | inactive: 7.47%
COc1ccccc1OP(C)(=O)Nc1c(C)cccc1C (stereo unspecified) | inactive: -6.3%
COc1ccc(-c2ccccn2)cc1.O=[N+]([O-])c1cc([N+](=O)[O-])c(O)c([N+](=O)[O-])c1 | inactive: 7.99%
CP(=O)(Nc1ccc(SC(F)(F)F)cc1)Oc1ccccc1 (stereo unspecified) | inactive: 16%
CCCOc1ccc(NP(C)(=O)Oc2ccc(Cl)cc2)cc1 (stereo unspecified) | inactive: -2.41%

Compound | inhibition
O=[N+]([O-])c1cc([N+](=O)[O-])c(Nc2nnnn2CCO)c([N+](=O)[O-])c1 | inactive: 8.72%
CCOC(=O)C(CC)C1=NC(C)(C)Cc2ccccc21.O=[N+]([O-])c1cc([N+](=O)[O-])c(O)c([N+](=O)[O-])c1 (stereo unspecified) | inactive: 2.31%
O=[N+]([O-])c1cc([N+](=O)[O-])c(-c2cnn(-c3ccccc3)c2)c([N+](=O)[O-])c1 | inactive: -3.84%
Cc1nc2ccc3ccccc3c2s1.O=[N+]([O-])c1cc([N+](=O)[O-])c(O)c([N+](=O)[O-])c1 | inactive: 5.1%
O=[N+]([O-])c1cc([N+](=O)[O-])c(-n2nnc3ccccc32)c([N+](=O)[O-])c1 | inactive: -6.91%
CN(Cc1cccnc1)C(=O)COc1ccc(Cl)c(Cl)c1.O=[N+]([O-])c1cc([N+](=O)[O-])c(O)c([N+](=O)[O-])c1 | inactive: 0.35%
CP(=O)(Nc1ccc2c(c1)OCCO2)Oc1ccccc1 (stereo unspecified) | inactive: -0.61%
Cc1ccccc1NP(C)(=O)Nc1ccccc1C | inactive: -4.24%
O=[N+]([O-])c1cc([N+](=O)[O-])c(C(F)(F)F)c([N+](=O)[O-])c1O | inactive: 4.7%
CP(=O)(Nc1ccc(SC(F)(F)F)cc1)Oc1ccc(F)cc1 (stereo unspecified) | inactive: -12.3%
CCOP(C)(=S)SCC(=O)NC(C)(CC)C(=O)O (stereo unspecified) | inactive: -9.61%
CCOP(=O)(CC)OCC | inactive: -8.11%
O=[N+]([O-])c1ccc(OP2(=O)COCCO2)cc1 (stereo unspecified) | inactive: 3.81%
O=[N+]([O-])c1cc([N+](=O)[O-])c(NCC2CCS(=O)(=O)C2)c([N+](=O)[O-])c1 (stereo unspecified) | inactive: 2.32%
Cc1cc(-c2cccc3ccccc23)c(C)cn1.O=[N+]([O-])c1cc([N+](=O)[O-])c(O)c([N+](=O)[O-])c1 | inactive: 3.94%
Cc1c(C(c2ccc3c(c2)OCO3)c2c(C)n(C)n(-c3ccccc3)c2=O)c(=O)n(-c2ccccc2)n1C.O=[N+]([O-])c1cc([N+](=O)[O-])c(O)c([N+](=O)[O-])c1 | inactive: 6.88%
COc1ccc(OP(C)(=O)Nc2cccc(Br)c2)cc1 (stereo unspecified) | inactive: 0.15%
CN(C)CCOC(=O)C(O)(c1ccccc1)C1CCCCC1 (stereo unspecified) | inactive: 3.32%
